The results in this text go back to US8778987B2, “Use of 4-hydroxychalcone derivatives for masking an unpleasant taste” (Symrise AG, priority 2008, dated 2014).

Test [1] has as its system bitter impression of aqueous caffeine solution. As to the kind of experiment: Reducing bitterness of a bitter substance solution, rated by a panel of experts (caffeine). It counts as in vivo. Particulars: 500 ppm caffeine; for Bitter impression (1-10) with: error = 95% confidence range. On the procedure: (§1) In order to quantify the reduction in the bitter impression, the bitterness of an aqueous bitter substance solution and a sample containing the same quantity of bitter substance and a varying quantity of the exemplary compound, was determined by a panel of experts (rating 0 [not bitter] to 10 [extremely bitter]). Evaluation took place by calculating the reduction (in %) in the bitter impression from the average values of the assessments of the bitter substance solution or the solutions containing bitter substance and exemplary compound. […] (2,4-DHB) was used as a comparison from U.S. Pat. No. 5,643,941.

Test [2] relates to bitter impression of aqueous quinine hydrochloride solution. As to the kind of experiment: Reducing bitterness of a bitter substance solution, rated by a panel of experts (quinine hydrochloride). Format: in vivo. The note with it: 50 ppm substance, 5 ppm quinine hydrochloride. Here is the method: as §1
Where [3] appears, read: substance concentration not given.

As for `COc1cc(CCC(=O)c2ccc(O)cc2O)ccc1O` [Compound 6, 3-(4-hydroxy-3-methoxyphenyl)-1-(2,4-dihydroxyphenyl)propan-1-one], in test [1] (setting [3]), the “% reduction in bitter impression” value is reported as 24%, n.s and the “Bitter impression (1-10) with” value is recorded as 3.3 ± 0.7. Moreover, the “Tester positive (number of testers who were able to identify masking)” value in test [1] (substance concentration not given, 15 testers total) is given as 11.
Regarding `COc1cc(CCC(=O)c2ccc(O)cc2)ccc1O` [Compound 10, 3-(4-hydroxy-3-methoxyphenyl)-1-(4-hydroxyphenyl)propan-1-one], the “% reduction in bitter impression” value is recorded as 29%, p < 0.05 in test [1] (50 ppm substance) and 34%, p < 0.1 in test [2]. Further, the “Tester positive (number of testers who were able to identify masking)” value in test [1] (50 ppm substance) is 15; in test [2] (13 testers total), 11. Further, the results for the “Bitter impression (1-10) with” value in test [1] (50 ppm substance) and in test [2] (error = 95% confidence range) were 3.7 ± 0.8 and 2.4 ± 0.8, respectively.
